# Where two headings read alike, the source gives them in different places.
# Assays:
# [1] = test system: CGRP-immunoreactivity in the spinal dorsal horn; conditions: for reduction of mean optical density of CGRP compared to the 10 day morphine-only treated group: morphine with AM-251 3.2 μg on days 6-10
# [2] = test system: CGRP-immunoreactive neurons in adult rat dorsal root ganglion cultures
# [3] = test system: Sprague Dawley rats; conditions: for morphine antinociception restored, % of the original analgesic response: opioid tolerant animals
# [4] = test system: Sprague Dawley rats; conditions: for morphine antinociception restored, % of the original analgesic response: opioid tolerant animals; remark: listed apart in the source
# [5] = test system: Sprague Dawley rats
# [6] = Acute Tolerance, morphine 15 μg, AM-251 3.2 μg i.t.
# [7] = Acute Tolerance, morphine 15 μg, AM-251 3.2 μg i.t., relative to saline
# [8] = Chronic Tolerance, days 1-5, morphine 15 μg, AM-251 3.2 μg i.t.
# [9] = Chronic Tolerance, days 1-5, morphine 15 μg, AM-251 3.2 μg i.t., relative to saline
# [10] = Maintenance of Chronic Tolerance: Mor 15 μg D1-5, then D6-10 the labelled treatment (Mor, Mor + AM-251 3.2 μg, or AM-251 3.2 μg)
# [11] = Maintenance of Chronic Tolerance: Mor 15 μg D1-5, then D6-10 the labelled treatment, relative to saline/saline
# [12] = Acute Tolerance: three i.t. injections over 4 h of Mor 15 μg, AM-251 3.2 μg or both, morphine ED50 from cumulative dose-response the following day
# [13] = Chronic Tolerance: daily i.t. days 1-5 of Mor 15 μg, AM-251 3.2 μg or both, morphine ED50 on day 6
# [14] = Maintenance of Chronic Tolerance: Mor 15 μg days 1-5, then days 6-10 the labelled treatment (Mor 15 μg, Mor + AM-251 3.2 μg, or AM-251 3.2 μg), morphine ED50 on day 11
# [15] = AM-251 1.6 μg co-administered on days 6-10
# [16] = AM-251 3.2 μg co-administered on days 6-10
smiles,measurement,setting,value
"Cc1c(C(=O)NN2CCCCC2)nn(-c2ccc(Cl)cc2Cl)c1-c1ccc(I)cc1 [AM-251, 1-(2,4-dichlorophenyl)-5-(4-iodophenyl)-4-methyl-N-1-piperidinyl-1H-pyrazole-3-carboxamide]",effect on basal CGRP-immunoreactivity compared to saline treated control,"[1]; AM-251 3.2 μg alone, maintenance paradigm",no effect
same,effect on CGRP-immunoreactivity,[1]; AM-251 3.2 μg in the absence of morphine for 5-days,no noticeable effect
same,effect on basal CGRP expression,[1]; AM-251 (1.6 or 3.2 μg) in the absence of morphine,no effect
same,"Deeper Laminae (mean ± s.e.mean), mean optical density of CGRP-immunoreactivity",[1]; [6],67.2 ± 4.1
same,"Superficial Laminae (mean ± s.e.mean), mean optical density of CGRP-immunoreactivity",[1]; [6],142.4 ± 4.2
same,"Relative OD, Deeper Laminae",[1]; [7],0.91
same,"Relative OD, Superficial Laminae",[1]; [7],1.04
same,"Deeper Laminae (mean ± s.e.mean), mean optical density of CGRP-immunoreactivity",[1]; [8],60.4 ± 8.0
same,"Superficial Laminae (mean ± s.e.mean), mean optical density of CGRP-immunoreactivity",[1]; [8],139.9 ± 3.6
same,"Relative OD, Deeper Laminae",[1]; [9],0.95
same,"Relative OD, Superficial Laminae",[1]; [9],1.04
same,"Deeper Laminae (mean ± s.e.mean), mean optical density of CGRP-immunoreactivity",[1]; [10],77.1 ± 2.3
same,"Superficial Laminae (mean ± s.e.mean), mean optical density of CGRP-immunoreactivity",[1]; [10],131.9 ± 7.6
same,"Relative OD, Deeper Laminae",[1]; [11],1.09
same,"Relative OD, Superficial Laminae",[1]; [11],1.03
same,effect on the increase in CGRP-immunoreactivity in morphine tolerant animals,[1]; co-administration of morphine with AM-251 3.2 μg on days 6-10,partially reversed
same,effect on the morphine-induced increase in CGRP-immunoreactivity,"[1]; co-treatment of morphine with AM-251 3.2 μg, 5 days",suppressed
same,reduction of mean optical density of CGRP compared to the 10 day morphine-only treated group,[1]; deeper laminae,9%
same,reduction of mean optical density of CGRP compared to the 10 day morphine-only treated group,[1]; superficial laminae,12%
same,effect on the morphine-induced increase in CGRP-immunoreactivity,[2]; AM-251 1 μM co-treatment with morphine,No effect
same,decrease in number of CGRP-immunoreactive neurons compared to morphine-only treated group,"[2]; AM-251 5 μM with morphine for 5 days, did not achieve statistical significance",20%
same,suppression of the morphine-induced increase in CGRP-immunoreactivity,[2]; AM-251 10 μM co-treatment with morphine for 5 days,25%
same,effect on basal CGRP expression in DRG neurons,[2]; AM-251 10 μM in the absence of morphine,no effect
same,effect on decline in morphine antinociception (chronic tolerance),"[3]; AM-251 1.6 μg i.t. with morphine, day 4 and day 5",attenuated the decline in morphine antinociception
same,Tail-flick ED50 (μg) (mean ± s.e.mean),[3]; [12],5.6 ± 0.1 µg
same,Tail-flick ED50 (μg) (mean ± s.e.mean),[3]; [13],6.8 ± 0.7 µg
same,Tail-flick ED50 (μg) (mean ± s.e.mean),[3]; [14],6.0 ± 0.2 µg
same,"morphine antinociception restored, % of the original analgesic response",[3]; [15],approximately 51%
same,"morphine antinociception restored, % of the original analgesic response",[3]; [16],approximately 73%
same,effect on decline in morphine antinociception (chronic tolerance),[4]; AM-251 1.6 μg i.t. with morphine,failed to have a significant effect
same,Paw-Pressure ED50 (μg) (mean ± s.e.mean),[4]; [12],4.6 ± 0.6 µg
same,Paw-Pressure ED50 (μg) (mean ± s.e.mean),[4]; [13],13.7 ± 0.8 µg
same,Paw-Pressure ED50 (μg) (mean ± s.e.mean),[4]; [14],6.2 ± 0.3 µg
same,"morphine antinociception restored, % of the original analgesic response",[4]; [15],~38%
same,"morphine antinociception restored, % of the original analgesic response",[4]; [16],~50%
same,effect on acute morphine tolerance (loss in morphine antinociception),"[5]; AM-251 1.6 μg co-administered with i.t. morphine 15 μg at 0, 90 and 180 minutes",attenuated the loss in morphine antinociception
same,effect on acute morphine tolerance (loss in morphine antinociception),"[5]; AM-251 3.2 μg co-administered with i.t. morphine 15 μg at 0, 90 and 180 minutes",pronounced inhibition of acute morphine tolerance
same,effect on development of chronic morphine tolerance,"[5]; AM-251 3.2 μg i.t. co-administered with morphine 15 μg for 5 days, tail-flick and paw-pressure tests",attenuated the development of tolerance
same,effect on the increase in morphine ED50 value in opioid tolerant animals,[5]; co-administration of morphine and AM-251 (1.6 or 3.2 μg) on days 6-10,reversed the increase in morphine ED50 value

# — patent US20080188508A1, “Methods and Therapies for Potentiating a Therapeutic Action of an Opioid Receptor Agonist and Inhibiting and/or Reversing Tolerance to Opioid Receptor Agonists” (priority 2007, published 2008)
